Measured values: US20260115304A1, “BIOACTIVE CONJUGATES, PREPARATION METHOD AND USE THEREOF” (priority 2023, published 2026)
Read-outs that look alike come from different tables or passages of the source.

B1: 3-11 (conjugate)
heavy: EVQLVQSGAEVKKPGASVKVSCKASGYSFTDYYMHWVRQAPGQGLEWIGRINPYAGAAFYSQNFKDRVTLTVDTSTSTAYLELSSLRSEDTAVYYCAIERGADLEGYAMDYWGQGTLVTVSSASTKGPSVFPLAPSSKSTSGGTAALGCLVKDYFPEPVTVSWNSGALTSGVHTFPAVLQSSGLYSLSSVVTVPSSSLGTQTYICNVNHKPSNTKVDKKV[human IgG1 Fc omitted]
light: DIQMTQSPSSLSASVGDRVTITCRASQSVSTSSYNYMHWYQQKPGKPPKLLIKYASNLESGVPSRFSGSGSGTDFTLTISSLQPEDFATYYCQHSWEIPLTFGQGTKVEIKRTVAAPSVFIFPPSDEQLKSGTASVVCLLNNFYPREAKVQWKVDNALQSGNSQESVTEQDSKDSTYSLSSTLTLSKADYEKHKVYACEVTHQGLSSPVTKSFNRGEC
B2: 3-14 (conjugate)
heavy: EVQLVQSGAEVKKPGASVKVSCKASGYSFTDYYMHWVRQAPGQGLEWIGRINPYAGAAFYSQNFKDRVTLTVDTSTSTAYLELSSLRSEDTAVYYCAIERGADLEGYAMDYWGQGTLVTVSSASTKGPSVFPLAPSSKSTSGGTAALGCLVKDYFPEPVTVSWNSGALTSGVHTFPAVLQSSGLYSLSSVVTVPSSSLGTQTYICNVNHKPSNTKVDKKV[human IgG1 Fc omitted]
light: DIQMTQSPSSLSASVGDRVTITCRASQSVSTSSYNYMHWYQQKPGKPPKLLIKYASNLESGVPSRFSGSGSGTDFTLTISSLQPEDFATYYCQHSWEIPLTFGQGTKVEIKRTVAAPSVFIFPPSDEQLKSGTASVVCLLNNFYPREAKVQWKVDNALQSGNSQESVTEQDSKDSTYSLSSTLTLSKADYEKHKVYACEVTHQGLSSPVTKSFNRGEC
B3: 3-12 (conjugate)
heavy: EVQLVQSGAEVKKPGASVKVSCKASGYSFTDYYMHWVRQAPGQGLEWIGRINPYAGAAFYSQNFKDRVTLTVDTSTSTAYLELSSLRSEDTAVYYCAIERGADLEGYAMDYWGQGTLVTVSSASTKGPSVFPLAPSSKSTSGGTAALGCLVKDYFPEPVTVSWNSGALTSGVHTFPAVLQSSGLYSLSSVVTVPSSSLGTQTYICNVNHKPSNTKVDKKV[human IgG1 Fc omitted]
light: DIQMTQSPSSLSASVGDRVTITCRASQSVSTSSYNYMHWYQQKPGKPPKLLIKYASNLESGVPSRFSGSGSGTDFTLTISSLQPEDFATYYCQHSWEIPLTFGQGTKVEIKRTVAAPSVFIFPPSDEQLKSGTASVVCLLNNFYPREAKVQWKVDNALQSGNSQESVTEQDSKDSTYSLSSTLTLSKADYEKHKVYACEVTHQGLSSPVTKSFNRGEC
B4: 3-18 (conjugate)
heavy: EVQLVQSGAEVKKPGASVKVSCKASGYSFTDYYMHWVRQAPGQGLEWIGRINPYAGAAFYSQNFKDRVTLTVDTSTSTAYLELSSLRSEDTAVYYCAIERGADLEGYAMDYWGQGTLVTVSSASTKGPSVFPLAPSSKSTSGGTAALGCLVKDYFPEPVTVSWNSGALTSGVHTFPAVLQSSGLYSLSSVVTVPSSSLGTQTYICNVNHKPSNTKVDKKV[human IgG1 Fc omitted]
light: DIQMTQSPSSLSASVGDRVTITCRASQSVSTSSYNYMHWYQQKPGKPPKLLIKYASNLESGVPSRFSGSGSGTDFTLTISSLQPEDFATYYCQHSWEIPLTFGQGTKVEIKRTVAAPSVFIFPPSDEQLKSGTASVVCLLNNFYPREAKVQWKVDNALQSGNSQESVTEQDSKDSTYSLSSTLTLSKADYEKHKVYACEVTHQGLSSPVTKSFNRGEC

Legend:
[1] = anti-CLL1 ADCs; for ADC AUClast / Tab AUClast: mouse, 5 mg/kg intravenous; for payload exposure compared with ADC3-A: mouse PK, 5 mg/kg
Experimental: Female BALB/c nude mice (n=3 per group) were treated with freshly prepared ADCs (5 mg/kg) through intravenous administration. At the designated time points after dosing, mice were anesthetized by isoflurane. […] Blood samples were placed at room temperature for about 30 minutes and processed by centrifugation (4° C., 3000×g, 7 min) to separate plasma. Serum samples were transferred into new 1.5 mL tubes and kept in a −80° C. freezer prior to analysis.
Serum payload concentrations. To determine serum payload concentrations, an aliquot of 15 μL sample was added with 150 μL IS (Verapamil, 10 ng/mL) in ACN/MeOH (1:1). The mixture was vortexed for 1 min and centrifuged at 4000 rpm for 10 min at 4° C. An aliquot of 80 μL supernatant was diluted with 80 μL water, and the mixed sample was injected into LC-MS/MS.
LC-MS MS method to determine payload bioanalysis. LC-MS/MS analysis was carried out under the following measurement conditions: • Instrument: LC-MS/MS (Triple Quad 6500 plus) • Monitor: MRM • Column: Advanced Materials Technology, HALO AQ-C18 2.7 μm 90 Å, 50*2.1 mm • Column temperature: 40° C. • Mobile phase A: H2O-0.1% FA • Mobile phase B: ACN-0.1% FA • Gradient program for MMAE: 15% B-15% B (0 min-0.4 min), 15% B-30% B (0.4 min-0.8 min), 30% B-30% B (0.8 min-1.8 min), 30% B-90% B (1.8 min-1.9 min), 90% B-90% B (1.9 min-2.4 min), 90% B-15% B (2.4 min-2.5 min), 15% B-15% B (2.5 min-3.0 min) • Injected sample amount: 10 μL (MMAE)
Plasma ADC and total Ab (Tab) concentrations. Plasma ADC and Tab concentrations were determined using an ELISA assay in which the capture reagent was CLL1 or PTK7 (as applicable) ECD (extracellular domain). The detection reagent was anti-payload Ab for ADC concentration and anti-human IgG polyclonal Ab for Tab concentration.
For ADC concentration, microplates were coated with CLL1 or PTK7, as applicable. ECD at 1 μg/mL, 100 μL per well and incubated overnight at 4° C. The microplates were washed 3 times with 0.05% PBST, then 200 μL 2% BSA solution was added per well. The plates were incubated at 37° C. for 1 h followed by washing 3 times with 0.05% PBST. Then 100 μL (of ADC samples or for standard curves) were added to each well. Plates were incubated at 37° C. for 1h followed by washing 3 times with 0.05% PBST. 100 μL of 1 μg/ml biotin anti-MMAE antibody was added per well. Plates were again incubated at 37° C. for 1 h and then washed 3 times with 0.05% PBST. Then 100 μL of 1:10000 SA-HRP was added per well, incubated at 37° C. for 0.5h, followed by washing 3 times with 0.05% PBST. Lastly, 100 μL TMB was added per well and plates were incubated for 15 mins at room temperature before the addition of 100 μL stop solution per well. Plates were read at OD 450 on an ELISA microplate reader.
For Tab concentration of anti-CLL1 antibodies, the foregoing ADC method was used except for the following changes: 100 μL of anti human lgG Fc HRP (1:10000) was added per well.
For Tab concentration of anti-PTK1 antibodies, the foregoing ADC method was used except for the following changes: 100 μL of 1 μg/ml anti human lgG Fc HRP (1:10000) was added per well.
Female BALB/c nude mice were subcutaneously injected with 5×10^6 NCI-H1650 cells (mixed with Matrigel at a ratio of 1:1) in the right flank. After inoculation, tumor length (a) and width (b) were measured with calipers and tumor volumes were calculated using the formula V=0.5(a×b^2). When tumor volumes reached approximately 200 mm^3 in size, mice were randomized into 4 groups with 6 animals in each of a vehicle, ADC5-A, ADC5-1, and ADC5-2 group on Day 0. Animals were intravenously administrated with vehicle, ADC5-A (3 mg/kg), ADC5-1 (3 mg/kg), or ADC5-2 (3 mg/kg) on treatment Day 1. […] Blood was centrifuged at 5000×g for 10 minutes at 4° C. to obtain serum for PK assays. Animal body weight and tumor volume were measured twice weekly. Tumor growth inhibition (TGI) was calculated using the following formula: […]

U937 cells = experiment: ADC direct killing in U937 cancer line (Cell Titer-Glo); assay type: cell-based, human; conditions: U937, 6 days
Experimental: U937 (ATCC, CRL-1593.2). […] U937 was purchased from ATCC. The base medium for U937 is ATCC-formulated RPMI-1640 Medium (ATCC 30-2001). To make the complete growth medium, fetal bovine serum to a final concentration of 10% (Gibco, 10099-141C) was added to the base medium. The cell line was grown in a humidified 5% CO2 atmosphere at 37° C., and was regularly tested for the presence of mycoplasma with MycoAtert™ PLUS Mycoplasma Detection Kit (Lonza, LT07-710).
ADC direct killing ADC direct killing was assessed in U937, HL60, and TF1 cancer lines. Cells were seeded (U937 or HL60 (3E3/well) or TF1 (6E3/well)) into 2D 96-well plates (Greiner: 655090), 100 μl/well (including 150 μg/ml Fe blocker), and incubated at 37° C., 5% CO2, for 1 h. Fresh growth medium was added containing varying concentrations of ADCs, 50 μl/well, and incubated at 37° C., 5% CO2, for 6 days. The cell viability was detected by Cell Titer-Glo (Promega, G7573), 70 μl/well. The 2D plates were allowed to incubate at room temperature for 10 minutes to stabilize the luminescent signal. The plates were analyzed with a microplate reader.

[2] = anti-CLL1 ADCs, 5 mg/kg; for DAR: mouse; for DAR changes compared with ADC3-A: mouse PK
Experimental: ADC DAR changes in mouse serum PK samples.
Human CLL1 or PTK7, as applicable, ECD was biotinylated and immobilized onto Dynabeads M-280 Streptavidin. ADCs were captured from the plasma samples by incubation with an ECD-bead system for 2 hours at 37° C. The captured ADCs were then washed with HBS-EP buffer (10 mM Hepes [pH 7.4], 150 mM NaCl, 3.4 mM ethylenediaminetetraacetic acid [EDTA], 0.005% Surfactant P20) and digested using IdeS enzyme at 37° C. for 1 h. After extensive washing of the beads with HBS-EP, water, and 10% acetonitrile, the ADC analytes were eluted using 30% acetonitrile with 1% formic acid. The samples were then reduced with 100 mM TCEP for 45 min. Liquid chromatography-tandem mass spectrometry (LC-MS/MS)methods were used for the ADC DAR analysis.

[3] = ADC hydrophobicity evaluation by HIC chromatography (DAR8 peak retention time); assay type: physicochemical; conditions: HIC retention time of DAR8 peak; later RT = higher hydrophobicity
Source text: ADC hydrophobicity evaluation: An ADC with a higher hydrophobic property would appear with a later retention time (“RT”) from HIC (hydrophobicity interaction column) chromatography. Results are presented in Tables 2A-2D using the DAR8 peak as a reference.

| Molecule | ADC AUClast [1] | Tab AUClast [1] | payload exposure compared with ADC3-A [1] | EC50 (U937 cells) | DAR ([2]; 2 h post-dosing) | DAR ([2]; […] post-dosing) | DAR changes compared with ADC3-A [2] | DAR8 RT [3] | DAR ([2]; 48 h post-dosing) |
| --- | --- | --- | --- | --- | --- | --- | --- | --- | --- |
| B1 | 8127 µg·h/mL | 8559 µg·h/mL | lower payload exposure | 0.5 nM | 3.24 (2 h) | 2.50 (168 h) | lower DAR changes | 13.220 min | – |
| B2 | 5072 µg·h/mL | 6481 µg·h/mL | lower payload exposure | 0.2 nM | 4.04 (2 h) | 2.88 (168 h) | lower DAR changes | 12.877 min | – |
| B3 | 8358 µg·h/mL | 7949 µg·h/mL | lower payload exposure | 0.6 nM | 2.68 (2 h) | 2.42 (168 h) | lower DAR changes | 11.126 min | – |
| B4 | 7696 µg·h/mL | 8242 µg·h/mL | lower payload exposure | 0.4 nM | 3.96 (2 h) | – | lower DAR changes | 12.192 min | 2.44 (48 h) |
